US8551952B2, “Methods for the treatment and prevention of ocular disorders” (Scynexis, Inc., priority 2006, dated 2013)

System: chorio-allantoic membranes (CAM) of fertilized chicken eggs
Details: for Classification: HET-CAM classification of irritation potential; for Coagulation / Haemorhage / Lysis: HET-CAM score, approximately 5 minutes incubation; for Total Score: HET-CAM, sum of scores, average across eggs

Substance | Classification | Coagulation | Haemorhage | Lysis | Total Score
3-[2-(4-hydroxypiperidin-1-yl)ethoxy]cyclosporin [J] | Slightly irritant | 0 | 0 | 3 | 3.0
3-[2-(morpholin-4-yl)ethoxy]cyclosporin [F] | Slightly irritant | 0 | 0 | 3 | 3.0
